Patent US20140303188A1, “Substituted Cyclopenta Pyrimidine Bicyclic Compounds Having Antitmitotic And/Or Antitumor Activity And Methods Of Use Thereof” (DUQUESNE UNIVERSITY OF THE HOLY SPIRIT, priority 2008, published 2014)

System: colchicine site on tubulin
Experiment: inhibition of [3H]colchicine binding to tubulin
Settings: 5 μM inhibitor
Protocol: The effects of designed compounds 10-14 on the polymerization of purified tubulin were evaluated. This allows for the study of the direct interaction of the compounds with their intracellular target. The ability of these compounds to bind to the colchicine site on tubulin was evaluated by measuring inhibition of [^3H]colchicine binding to tubulin. […] It is clear that at 1 and 5 μM concentrations, 13 inhibited the binding of [^3H]colchicine, somewhat more potently than CA4. It is therefore likely that 13 binds in the colchicine site.

COc1ccc(/C=C\c2cc(OC)c(OC)c(OC)c2)cc1O [CA4, combretastatin A-4, reference compound]
Inhibition of colchicine binding % Inhibition ± SD: 99 ± 0.6%
